Literature values in patent US20110251126A1, “INTESTINAL TREATMENT” (priority 2008, published 2011).

Sequences of proteins named here, by UniProt entry; tags and fusion partners are left off. A change or cut given only in a name is not applied to a line headed by its entry.
UniProt P50391: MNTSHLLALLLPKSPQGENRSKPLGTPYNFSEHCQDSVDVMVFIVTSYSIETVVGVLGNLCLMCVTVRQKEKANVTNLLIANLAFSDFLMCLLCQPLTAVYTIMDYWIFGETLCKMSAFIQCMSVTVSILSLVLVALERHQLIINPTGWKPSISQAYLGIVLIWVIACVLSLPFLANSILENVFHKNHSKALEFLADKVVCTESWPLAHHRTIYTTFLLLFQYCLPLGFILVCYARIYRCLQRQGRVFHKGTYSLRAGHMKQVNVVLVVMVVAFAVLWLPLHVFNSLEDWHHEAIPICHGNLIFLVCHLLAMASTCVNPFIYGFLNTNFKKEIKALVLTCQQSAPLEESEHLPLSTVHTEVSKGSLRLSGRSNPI

Biological target: Y4 receptors (Homo sapiens, UniProt P50391)
Conditions: Michel et al. 1998; cited from earlier work

Neuropeptide Y [NPY]
affinity for Y4 receptors: nanomolar
